Assay results taken from paper PMC5894102 (Journal of medicinal chemistry, 2017).

Settings: mouse, human

Compound	glucuronidation in microsomes with NADPH/UDPGA
NS(=O)(=O)c1ccc(Cc2c(-c3cccc(-c4ccccc4)c3)nn(-c3nc(C(=O)O)cs3)c2C2CC2)cc1 [Analog 61]	neither 61 nor 63 showed any evidence of glucuronidation
NS(=O)(=O)c1ccc(Cc2c(-c3cccc(-c4ccccc4)c3)nn(-c3nc(C(=O)O)cs3)c2CC2CC2)cc1 [Analog 63]	neither 61 nor 63 showed any evidence of glucuronidation
